Properties, as collected for the OPERA models

Source: data files of OPERA 2.9 (Mansouri et al.), github.com/kmansouri/OPERA.

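These are experimental values that the OPERA curators gathered from public databases to train and test their QSAR models. The files give a single number for a compound and property, which may rest on several reports. Method, purity and exact conditions of the single measurements are not given. The measured form (salt, isomer or mixture) is not always the one drawn. Some entries may be limits or estimates that an upstream database listed as plain numbers.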

Melting points are in °C.
The boiling point refers to atmospheric pressure (760 mmHg), by the definition of the set.
logP is the log10 of the octanol-water partition coefficient; higher is more lipophilic.
Solubility in water is on a log10 molar scale (set defined at 25 °C).
Vapor pressures (log10 mmHg) refer to near room temperature, 15 to 30 °C; higher is more volatile.
Henry's law constant (air-water partitioning) is log10 of atm·m3/mol, nominally at 25 °C.
The unbound fraction in human plasma runs from 0 (all bound) to 1 (all free).
Clint is human hepatic intrinsic clearance in µL/min per million cells; 0 means that no clearance was seen.
"–" marks a cell with nothing listed here.

| compound | name | mp (°C) | boiling point (°C) | log Kow | log S (log10 mol/L) | vapor pressure (log10 mmHg) | Henry's law constant (log10 atm·m3/mol) | fu | intrinsic clearance (µL/min/10^6 cells) |
|---|---|---|---|---|---|---|---|---|---|
| CCC(Oc1ccc(F)c(C(F)(F)F)c1)C(=O)NCc1ccccc1 (configuration not stated) | Beflubutamid | – | – | – | – | -7.084 | -8.964 | – | – |
| OCCOCc1ccccc1 | Ethanol, 2-(phenylmethoxy)- | – | – | – | -0.664 | -1.699 | – | – | – |
| CCc1nc(C)c[nH]1 | 2-Ethyl-4-methyl-1H-imidazole | – | – | 1.13 | – | -3.543 | – | – | – |
| O=C(O)Cc1cccc2ccccc12 | 1-Naphthaleneacetic acid | – | – | – | – | -5.021 | -8.524 | – | – |
| CCOC(=O)CCn1c2c(c3ccccc31)C[C@H](N[C@@H](C)c1ccccc1)CC2 | – | 86 | – | – | -4.433 | -8.061 | – | – | – |
| CCc1cn([C@H]2C[C@H](OC(=O)c3ccc(Cl)cc3)[C@@H](COC(=O)c3ccc(Cl)cc3)O2)c(=O)[nH]c1=O | 3',5'-Bis-O-(4-chlorobenzoyl)-2'-deoxy-5-ethyluridine | 194.8 | – | – | -6.551 | – | – | – | – |
| CCC1CC2CC1CC2OC (configuration not stated) | 2-Ethyl-5-methoxybicyclo[2.2.1]heptane | – | – | – | -2.724 | 0.039 | – | – | – |
| C=COC(=O)C(CC)CCCC (configuration not stated) | Ethenyl 2-ethylhexanoate | – | 188.9 | – | – | -0.147 | – | – | – |
| CC(CC(C)C)=NCCNCCN=C(C)CC(C)C | N1,N3-Bis(1,3-dimethylbutylidene)diethylenetriamine | – | – | 7.63 | – | -3.581 | – | – | – |
| CC1=CCC(CCC(C)CO)C1(C)C (configuration not stated) | 3-Cyclopentene-1-butanol, .beta.,2,2,3-tetramethyl- | -67 | – | 3.94 | -3.843 | -1.974 | – | – | – |
| CCCCCCCCCCCCCCCCCCCCCC(N)=O | Docosanamide | – | – | – | -6.832 | – | -5.49 | – | – |
| C=C(C)C(=O)OCCCCCC | n-Hexyl methacrylate | – | – | 4.27 | -3.755 | -0.745 | – | – | – |
| CCCc1ccc(O)c(OC)c1 | 2-methoxy-4-propylphenol | – | – | – | – | – | – | 0.0707 | 24.6 |
| CC(C)c1nn(C(=O)NC(C)(C)C)c(=O)n1N | Amicarbazone | – | – | – | -1.719 | -8.01 | – | – | – |
| COc1cc(C=O)ccc1O | 4-hydroxy-3-methoxybenzaldehyde | – | – | – | – | – | – | 0.322 | 234 |
| CC1=CCCC2(C)C(OC=O)C(C)CCC12C (configuration not stated) | – | – | – | – | -5.031 | -2.444 | – | – | – |
| O=C(Nc1nnc[nH]1)c1ccccc1O | 2-Hydroxy-N-(4H-1,2,4-triazol-3-yl)benzamide | – | – | 1.41 | -4.663 | -4.512 | – | – | – |
| Cc1coc2ccc(O)cc12 | 3-Methyl-1-benzofuran-5-ol | 92.5 | – | – | -2.018 | -3.185 | – | – | – |
| FC1CC(F)(F)C(F)(F)C1(F)F (configuration not stated) | 1H,1H,2H-Perfluorocyclopentane | 20.75 | – | 2.4 | -2.437 | 1.517 | – | – | – |
| C=C(C)C(=O)NCNC(=O)C(=C)C | 2-Propenamide, N,N'-methylenebis[2-methyl- | 163 | – | 1 | – | – | – | – | – |
| C=CCOC(=O)/C=C/c1ccccc1 | – | – | – | 3.4 | -3.287 | -2.462 | – | – | – |
| O=C1c2ccccc2C(c2ccc(O)cc2)(c2ccc(O)cc2)N1c1ccccc1 | 3,3-Bis(4-hydroxyphenyl)-2-phenylisoindolin-1-one | 294.5 | – | – | -6.252 | – | – | – | – |
| O=C1Cc2cc(CCCl)c(Cl)cc2N1 | 6-Chloro-5-(2-chloroethyl)-1,3-dihydro-2H-indol-2-one | – | – | 2.93 | -4.778 | -8.011 | – | – | – |
| Nc1ccccc1-c1cc(F)c(F)c(F)c1 | 3',4',5'-Trifluoro[1,1'-biphenyl]-2-amine | 69 | 287.1 | 3.3 | -3.654 | -3.267 | – | – | – |
| CCCCC(CC)COCCCNS(=O)(=O)c1ccc2c(c1)-c1nc-2nc2[n-]c(nc3nc(nc4[n-]c(n1)c1ccc(S(=O)(=O)NCCCOCC(CC)CCCC)cc41)-c1ccccc1-3)c1cccc(S(=O)(=O)NCCCOCC(CC)CCCC)c21.[Cu+2] (configuration not stated) | – | – | – | 1.294 | -4.821 | – | – | – | – |
| CC(=O)OCC(=O)[C@H]1[C@H](C)C[C@H]2[C@@H]3C[C@H](F)C4=CC(=O)CC[C@]4(C)[C@H]3[C@@H](O)C[C@@]21C | – | 259.7 | – | 2.84 | -6.172 | – | – | – | – |
| CC(CN(C)C)CN1c2ccccc2CCc2ccccc21 (configuration not stated) | Trimipramine | – | – | – | – | – | – | 0.05913 | 58.41 |
| S=C(SSSSSSC(=S)N1CCCCC1)N1CCCCC1 | Bis(1-piperidinylthioxomethyl)hexasulfide | 122.3 | – | – | -7.632 | – | – | – | – |
| CC(C)(N)CO.CCCCCCCCCCCCc1ccccc1S(=O)(=O)O | – | – | – | 0.17 | 0.214 | -9.837 | – | – | – |
| Cc1cc(O)c(C(C)C)cc1C1(c2cc(C(C)C)c(O)cc2C)OC(=O)c2ccccc21 | 3,3-Bis(4-hydroxy-5-isopropyl-o-tolyl)phthalide | – | – | 3.682 | -8.221 | – | – | – | – |

Excerpt, the opening 3 entries:

| compound | name | mp (°C) | boiling point (°C) | log Kow | log S (log10 mol/L) | vapor pressure (log10 mmHg) | Henry's law constant (log10 atm·m3/mol) | fu | intrinsic clearance (µL/min/10^6 cells) |
|---|---|---|---|---|---|---|---|---|---|
| CCC(Oc1ccc(F)c(C(F)(F)F)c1)C(=O)NCc1ccccc1 (configuration not stated) | Beflubutamid | – | – | – | – | -7.084 | -8.964 | – | – |
| OCCOCc1ccccc1 | Ethanol, 2-(phenylmethoxy)- | – | – | – | -0.664 | -1.699 | – | – | – |
| CCc1nc(C)c[nH]1 | 2-Ethyl-4-methyl-1H-imidazole | – | – | 1.13 | – | -3.543 | – | – | – |